Experimental data taken from US20220017483A1, “AMINOPYRIDINE COMPOUND, PREPARATION METHOD THEREFOR AND USE THEREOF” (SICHUAN-KELUN-BIOTECH BIOPHARMACEUTICAL CO., LTD, priority 2018, published 2022).

Target: T1, A2a receptor cell membrane (human origin) (Homo sapiens, UniProt P29274)
T1 construct: purchased PerkinElmer RBHA2AM400UA
Assay: Competitive inhibition constant (Ki) for adenosine A2a receptor, [3H]-CGS-21680 radioligand binding
Conditions: selectivity ratio A1 over A2a
Method: A2a receptor cell membrane (human origin): PerkinElmer, RBHA2AM400UA
A2a test buffer: 50 mM Tris-HCl, 10 mM MgCl2, 1 mM EDTA, pH7.4
The A1 receptor cell membrane was diluted to 0.025 μg/μl with the A1 test buffer and the A2a receptor cell membrane was diluted to 0.05 μg/μl with the A2a test buffer to obtain an A1 receptor cell membrane dilution and an A2a receptor cell membrane dilution.
The tested compound and CGS15943 were gradiently diluted with DMSO. 1 μl test compound, high-value control (0.5% DMSO), low-value control (1000 nM CGS15943) were added to a 96-well plate, wherein each well was added with 100 μl A1 receptor cell membrane dilution (containing 2.5 μg cell membrane) to obtain an A1 detection plate. […]
After the incubation, the reaction solutions in the A1 detection plate and the A2a detection plate were transferred to two Unifilter-96 GF/C filter plates. […] After sealing the top of the filter plates, the plates were read in the counter MicroBeta2 Reader.
Data analysis: The inhibition rate was calculated according to the following formula: […]
IC50 was fitted by EXCEL XLfit. The competitive inhibition constant (Ki) was calculated according to the formula: Ki=IC50/(1+the concentration of the isotope-labelled ligands/Kd); Kd is the dissociation constant of the isotope-labeled ligands.

Ki(A1)/Ki(A2a): 46.8
SMILES: Cc1cc(-c2cc(-n3cc(C(N)=O)cn3)c(N)nc2-c2ccc(F)cc2)cc(Cl)n1 [Compound 26, 1-(6-amino-2′-chloro-2-(4-fluorophenyl)-6′-methyl-[3,4′-bipyridine]-5-yl)-1H-pyrazol-4-carboxamide]
